Results: patent US20220064195A1, “SYNTHETIC I2 IMIDAZOLINE RECEPTOR LIGANDS FOR PREVENTION OR TREATMENT OF HUMAN BRAIN DISORDERS” (Universitat de Barcelona, priority 2018, published 2022)

Columns and labels:
α2-AR = assay: Competition binding against the selective α2-AR radioligand [3H]RX821002 in membranes from post-mortem human frontal cortex
I2-IR = assay: Competition binding against the selective I2-IR radioligand [3H]-2-BFI in membranes from post-mortem human frontal cortex

Structure (SMILES): CCOP(=O)(OCC)[C@]1(c2ccccc2)N=C[C@H]2C(=O)N(C)C(=O)[C@H]21 (relative stereo)
- [^3H]-RX821002 α2 binding affinity (pKi) (α2-AR): 5.93 ± 0.41
- Permeability (Pe) Experimental value ± SD (n = 3) (PAMPA-BBB, PBS:EtOH (70:30), three experiments in triplicate): 0.75 ± 0.13 10−6 cm s^−1
- CNS Prediction (predictive penetration in the CNS from PAMPA-BBB Pe): CNS− (compounds of low BBB permeation (CNS−): Pe (10^−6 cm s^−1)<2,083)
- Selectivity I2/α2 (I2-IR; antilogarithm of the difference between pKi for I2-IR and pKi for α2-AR): 110
- [^3H]-2-BFI I2 binding affinity (pKi) (I2-IR; membranes from post-mortem human frontal cortex, radioligand [3H]-2-BFI): 7.97 ± 0.55
